Data from patent US20050209157A1, “Short bioactive peptides and methods for their use” (priority 2001, published 2005).
Values after ≈ are worked out from the molar mass of the structure shown.

Experiments:
[1] = test system: Pseudomonas aeruginosa 105663; format: cell-based; conditions: Table 9; in µg/mL
[2] = test system: Pseudomonas aeruginosa H187; format: cell-based; conditions: Table 9; in µg/mL
P. aeruginosa H374 = format: cell-based, Pseudomonas aeruginosa; conditions: Table 9; in µg/mL
[3] = test system: Pseudomonas aeruginosa 100609; format: cell-based; conditions: Table 9; in µg/mL
[4] = test system: Pseudomonas aeruginosa ATCC 9027; test: Antimicrobial assay I, MIC by OD measurement; format: cell-based; conditions: 37° C. for 24 hours, absorbance 620 nm
Text: (§1) The data for the following antimicrobial assay of the peptides have been obtained by making OD measurements in in vitro cell culture experiments with and without added peptide. The protocol used is as follows.
(§2) Cell lines included Staphylococcus aureus ATCC 6538 or 25923, Pseudomonas aeruginosa ATCC 9027 or 27853. Medium used were Antibiotic Medium 3 (Difco), Antibiotic Medium 2 (Difco), and 0.85% saline. Controls used were physiological saline, and gentamycin at 50, 25, 10, 5, 1, and 0.1 ppm.
(§3) Absorbance was read at 620 nm after shaking to resuspend cells.
(§4) Staph6538 is Staphylococcus aureus ATCC accession number 6538; paerug9027 is Pseudomonas aeruginosa ATCC accession number 9027, yeast is Saccharomyces cerevisiae.

[5] = test system: Staphylococcus aureus ATCC 6538; test: Antimicrobial assay I, MIC by OD measurement; format: cell-based; conditions: 37° C. for 24 hours, absorbance 620 nm
Text: as §1, §2, §3, §4

in vitro [6] = format: cell-based; conditions: human, human red blood cells, pH 7, hemolytic assay, concentration at 50% hemolysis, 1 hour at 37° C.; read-out: LD50
Method: This hemolytic assay is based upon that presented in Journal of Peptide Research 53: 82-90 (1999). […] All procedures were performed according to safety protocols pertaining to the handling and disposal of human body fluids.
Red blood cells (RBCs) were washed three times with PBS (35 mM phosphate buffer 0.15 M NaCl, pH 7.0). RBCs suspended in PBS (0.4% (v/v); about 10 ml per 15 peptides) were prepared. Suspensions (100 μl) were aliquoted to each sample and control tube. Serially diluted peptide solutions (100 μl) were pipetted into the sample tubes. Negative control tubes contained 100 μl PBS; positive control tubes contained 100 μl 1% Triton-X100 detergent. All tubes were incubated for 1 hour at 37° C. The tubes were removed from the incubator and centrifuged at 1000 g for 5 minutes. Supernatant (100 μl) was pipetted to a 96-well polyvinyl chloride plate. The absorbance at 414 nm (A414) was measured, and used to calculate the percent hemolysis according to the following formula. [formula]

[7] = test system: yeast (Saccharomyces cerevisiae); test: Antimicrobial assay I, yeast assay in RPMI 1640; format: cell-based; conditions: RPMI 1640 media
Method: as §1, §3
The yeast assay was performed in RPMI 1640 media (pH 7.0 at 25° C.).
as §4

in vitro [8] = conditions: human, WI38 normal lung fibroblast cells, 24 hours with peptide
MCF7 = test: Anti-cancer assay, MTT, LD50; format: cell-based; conditions: MCF7 breast adenocarcinoma line, 24 hours with peptide
Text: (§5) Numbers are LD50 values (μg/mL).

H1299 = test: Anti-cancer assay, MTT, LD50; format: cell-based; conditions: 24 hours with peptide, lung large cell carcinoma
Text: as §5

PC3 = test: Anti-cancer assay, MTT, LD50; format: cell-based; conditions: 24 hours with peptide, prostate adenocarcinoma
Text: as §5

HeLaS3 = test: Anti-cancer assay, MTT, LD50; format: cell-based; conditions: 24 hours with peptide, cervical carcinoma
Text: as §5

WI38 = conditions: MTT, 24 hours with peptide; normal fibroblast line
[9] = test system: Pseudomonas aeruginosa ATCC 27853; test: Antimicrobial assay I, modified protocol (tryptic soy broth), MBC; conditions: minimum bactericidal concentration, Table 4
[10] = test system: Stapholococcus aureus ATCC 25923; test: as above; conditions: minimum bactericidal concentration, Table 4
[11] = test system: Escherichia coli ATCC 25922; test: as above; conditions: minimum bactericidal concentration, Table 4
[12] = test system: Candida albicans ATCC 10231; test: Antimicrobial assay I, modified protocol (tryptic soy broth), MFC; conditions: minimum fungicidal concentration, Table 4
cancer cell lines = test: Anti-cancer assays, MTT, summary over the cancer cell lines; format: cell-based; conditions: X = preferred
[13] = LD50 WI38, WI38 normal lung fibroblast line, MTT

CC(C)C[C@H](NC(=O)[C@H](C)NC(=O)[C@H](CC(C)C)NC(=O)[C@H](C)NC(=O)[C@H](CC(C)C)NC(=O)[C@H](CCCCN)NC(=O)[C@H](C)NC(=O)[C@H](CC(C)C)NC(=O)[C@H](CCCCN)NC(=O)[C@H](CCCCN)NC(=O)[C@H](C)NC(=O)[C@H](CC(C)C)NC(=O)[C@H](CCCCN)NC(=O)[C@H](CCCCN)NC(=O)[C@H](CC(C)C)NC(=O)[C@H](CCCCN)NC(=O)[C@H](CCCCN)NC(=O)[C@H](C)NC(=O)[C@H](CC(C)C)NC(=O)[C@H](CCCCN)NC(=O)[C@H](CCCCN)NC(=O)[C@H](C)NC(=O)[C@@H](N)Cc1ccccc1)C(=O)O [P13 (6)]
MIC P. aeruginosa Tb 105663 [1]: 16
MIC P. aeruginosa H187 [2]: 16
MIC P. aeruginosa H374 (P. aeruginosa H374): 16
MIC P. aeruginosa Tb 100609 [3]: 16

CC(C)C[C@H](NC(=O)[C@H](C)NC(=O)[C@H](CC(C)C)NC(=O)[C@H](C)NC(=O)[C@H](CC(C)C)NC(=O)[C@H](CCCCN)NC(=O)[C@H](C)NC(=O)[C@H](CC(C)C)NC(=O)[C@H](CCCCN)NC(=O)[C@H](CCCCN)NC(=O)[C@H](C)NC(=O)[C@H](CC(C)C)NC(=O)[C@H](CCCCN)NC(=O)[C@H](CCCCN)NC(=O)[C@H](CC(C)C)NC(=O)[C@H](CCCCN)NC(=O)[C@H](CCCCN)NC(=O)[C@H](C)NC(=O)[C@H](CC(C)C)NC(=O)[C@H](CCCCN)NC(=O)[C@H](CCCCN)NC(=O)[C@H](C)NC(=O)[C@@H](N)Cc1ccccc1)C(=O)O [P13, reference compound]
paerug9027 (MIC) [4]: > (> indicates greater than 200 μg/mL)
staph6538 (MIC) [5]: 10 µg/mL
HC50 at 1 h (in vitro [6]): 50 µg/mL
yeast (MIC or MFC) [7]: > (> indicates greater than 200 μg/mL)

CC(C)C[C@@H](NC(=O)[C@@H](C)NC(=O)[C@@H](CC(C)C)NC(=O)[C@@H](C)NC(=O)[C@@H](CC(C)C)NC(=O)[C@@H](CCCCN)NC(=O)[C@@H](C)NC(=O)[C@@H](CC(C)C)NC(=O)[C@@H](CCCCN)NC(=O)[C@@H](CCCCN)NC(=O)[C@@H](C)NC(=O)[C@@H](CC(C)C)NC(=O)[C@@H](CCCCN)NC(=O)[C@@H](CCCCN)NC(=O)[C@@H](CC(C)C)NC(=O)[C@@H](CCCCN)NC(=O)[C@@H](CCCCN)NC(=O)[C@@H](C)NC(=O)[C@@H](CC(C)C)NC(=O)[C@@H](CCCCN)NC(=O)[C@@H](CCCCN)NC(=O)[C@@H](C)NC(=O)[C@H](N)Cc1ccccc1)C(=O)O [P67]
CC50 at 24 h (in vitro [8]; [13]): 4 µg/mL (≈ 1.58 µM)
CC50 at 24 h (in vitro [8]; WI38 LD50, MTT, normal fibroblast line): 95 µg/mL (≈ 37.4 µM)
HC50 at 1 h (in vitro [6]): 40 µg/mL

CC(C)C[C@H](NC(=O)[C@H](C)NC(=O)[C@H](CC(C)C)NC(=O)[C@H](C)NC(=O)[C@H](CC(C)C)NC(=O)[C@H](CCCCN)NC(=O)[C@H](C)NC(=O)[C@H](CC(C)C)NC(=O)[C@H](CCCCN)NC(=O)[C@H](CCCCN)NC(=O)[C@H](C)NC(=O)[C@H](CC(C)C)NC(=O)[C@H](CCCCN)NC(=O)[C@H](CCCCN)NC(=O)[C@H](CC(C)C)NC(=O)[C@H](CCCCN)NC(=O)[C@H](CCCCN)NC(=O)[C@H](C)NC(=O)[C@H](CC(C)C)NC(=O)[C@H](CCCCN)NC(=O)[C@H](CCCCN)NC(=O)[C@H](C)NC(=O)[C@@H](N)Cc1ccccc1)C(=O)O [SHIVA 10 AC]
CC50 at 24 h (in vitro [8]; [13]): 57 µg/mL (≈ 22.5 µM)
LD50 MCF7 (MCF7): > (> indicates greater than 1000)
H1299 LD50 (H1299): > (> indicates greater than 1000)
PC3 LD50 (PC3): 83 µg/mL
HeLaS3 LD50 (HeLaS3): > (> indicates greater than 1000)
WI38 LD50 (WI38): 57 µg/mL

CC(C)C[C@H](NC(=O)[C@H](C)NC(=O)[C@H](CC(C)C)NC(=O)[C@H](C)NC(=O)[C@H](CC(C)C)NC(=O)[C@H](CCCCN)NC(=O)[C@H](C)NC(=O)[C@H](CC(C)C)NC(=O)[C@H](CCCCN)NC(=O)[C@H](CCCCN)NC(=O)[C@H](C)NC(=O)[C@H](CC(C)C)NC(=O)[C@H](CCCCN)NC(=O)[C@H](CCCCN)NC(=O)[C@H](CC(C)C)NC(=O)[C@H](CCCCN)NC(=O)[C@H](CCCCN)NC(=O)[C@H](C)NC(=O)[C@H](CC(C)C)NC(=O)[C@H](CCCCN)NC(=O)[C@H](CCCCN)NC(=O)[C@H](C)NC(=O)[C@@H](N)Cc1ccccc1)C(=O)O [compound 13]
MBC P. aerug A.27853 [9]: 15 µg/mL (≈ 5.91 µM)
MBC S. aur A.25923 [10]: 30 µg/mL (≈ 11.8 µM)
MBC E. coli A.25922 [11]: 8 µg/mL (≈ 3.15 µM)
MFC Candida A.10231 [12]: >50 µg/mL

CC(C)C[C@H](NC(=O)[C@H](C)NC(=O)[C@H](CC(C)C)NC(=O)[C@H](C)NC(=O)[C@H](CC(C)C)NC(=O)[C@H](CCCCN)NC(=O)[C@H](C)NC(=O)[C@H](CC(C)C)NC(=O)[C@H](CCCCN)NC(=O)[C@H](CCCCN)NC(=O)[C@H](C)NC(=O)[C@H](CC(C)C)NC(=O)[C@H](CCCCN)NC(=O)[C@H](CCCCN)NC(=O)[C@H](CC(C)C)NC(=O)[C@H](CCCCN)NC(=O)[C@H](CCCCN)NC(=O)[C@H](C)NC(=O)[C@H](CC(C)C)NC(=O)[C@H](CCCCN)NC(=O)[C@H](CCCCN)NC(=O)[C@H](C)NC(=O)[C@H](N)Cc1ccccc1)C(=O)O [compound 67]
MBC P. aerug A.27853 [9]: 30 µg/mL (≈ 11.8 µM)
Anti-cancer (preferred peptide) (cancer cell lines): X (Preferred anticancer peptides can be selected as having LD50 values of less than or equal to about 25 μg/ml)
MBC S. aur A.25923 [10]: 30 µg/mL (≈ 11.8 µM)
MBC E. coli A.25922 [11]: 25 µg/mL (≈ 9.85 µM)
MFC Candida A.10231 [12]: >50 µg/mL
